The data set relates to Brain. As to the kind of experiment: Permeability across rat brain.

Among the data in ChEMBL document CHEMBL1156721, “Monoquaternary pyridinium salts with modified side chain-synthesis and evaluation on model of tabun- and paraoxon-inhibited acetylcholinesterase” (2008) are permeability values, retold here.

Regarding `C[n+]1ccccc1/C=N/O.[Cl-]`, the permeability is 10%.
